In this experiment the test system is spleen CD4+ T cells. Particulars: pre-immunisation before IP Der p 2 in alum.

This note sets out measurements from patent publication US11718650B2, “Immunogenic peptides and their use in immune disorders” (IMCYSE SA, priority 2006, dated 2023).

Regarding QYIKANSKFIGITELGGCHGSEPCIIHRGKPF, the “production of cytokines by CD4+ spleen cells stimulated with Der p 2” value is reported as “reduced to undetectable concentrations”.
